Broadly, the IC50 is the point on the concentration scale where inhibition reaches its midpoint. Higher therefore signals lower potency.

Amino acid sequences for entries named in this document (tags omitted).
UniProt P09619, whole entry: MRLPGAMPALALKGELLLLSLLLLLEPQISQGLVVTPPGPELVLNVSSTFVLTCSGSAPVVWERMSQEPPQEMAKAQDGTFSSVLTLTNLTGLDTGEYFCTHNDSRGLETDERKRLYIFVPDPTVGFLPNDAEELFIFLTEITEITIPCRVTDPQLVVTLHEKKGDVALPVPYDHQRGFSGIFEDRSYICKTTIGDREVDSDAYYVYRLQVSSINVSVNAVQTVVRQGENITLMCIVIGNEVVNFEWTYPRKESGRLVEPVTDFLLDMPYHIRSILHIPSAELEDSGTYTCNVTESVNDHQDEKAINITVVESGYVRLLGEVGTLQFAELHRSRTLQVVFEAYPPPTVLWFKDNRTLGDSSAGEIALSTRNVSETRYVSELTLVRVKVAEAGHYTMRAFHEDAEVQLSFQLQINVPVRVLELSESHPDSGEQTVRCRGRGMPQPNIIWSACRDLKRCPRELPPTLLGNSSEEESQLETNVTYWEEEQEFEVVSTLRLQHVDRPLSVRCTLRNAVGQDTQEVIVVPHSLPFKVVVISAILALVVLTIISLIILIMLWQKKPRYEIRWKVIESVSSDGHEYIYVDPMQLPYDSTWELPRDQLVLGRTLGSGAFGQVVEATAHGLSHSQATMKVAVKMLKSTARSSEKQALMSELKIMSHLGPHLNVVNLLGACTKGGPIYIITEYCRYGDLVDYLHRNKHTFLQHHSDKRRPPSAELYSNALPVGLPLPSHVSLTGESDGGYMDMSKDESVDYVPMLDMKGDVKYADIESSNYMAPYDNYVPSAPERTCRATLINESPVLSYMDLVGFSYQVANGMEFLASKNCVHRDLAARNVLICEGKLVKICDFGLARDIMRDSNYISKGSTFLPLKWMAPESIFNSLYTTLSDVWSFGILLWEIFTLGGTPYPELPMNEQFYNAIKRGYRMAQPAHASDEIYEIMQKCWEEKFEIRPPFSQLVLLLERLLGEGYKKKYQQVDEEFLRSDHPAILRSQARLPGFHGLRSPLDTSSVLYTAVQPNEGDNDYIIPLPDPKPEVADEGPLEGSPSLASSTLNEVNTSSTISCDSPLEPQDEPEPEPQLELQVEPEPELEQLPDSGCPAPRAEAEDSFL

For 1 molecule, IC50 results are on record in ChEMBL document CHEMBL1955729, “N⁴-(3-Bromophenyl)-7-(substituted benzyl) pyrrolo[2,3-d]pyrimidines as potent multiple receptor tyrosine kinase inhibitors: design, synthesis, and in vivo evaluation” (Bioorg Med Chem, 2012).

Bounds are passed on as bounds.

This test has as its target Platelet-derived growth factor receptor beta (Homo sapiens, UniProt P09619).

On to `Nc1nc(Nc2cccc(Br)c2)c2cc(Cc3ccc(-c4ccccc4)cc3)[nH]c2n1`, for which the IC50 was more than 50 µM.
